Results from PubChem BioAssay (NCI).
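Cells were grown in 96-well plates and exposed to each compound for 48 hours at five concentrations; endpoints were interpolated linearly between bracketing concentrations, or set to the highest concentration if not reached. GI50 is the concentration that inhibits growth by half. TGI marks complete inhibition of growth.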

Legend:
Assay in all cases: growth of human tumour cells (NCI), 48 h
OVCAR-3 ovarian = system: OVCAR-3 ovarian
PC-3 prostate = system: PC-3 prostate
SNB-19 CNS = system: SNB-19 CNS
SF-539 CNS = system: SF-539 CNS
NCI-H226 lung = system: NCI-H226 lung
SN12C renal = system: SN12C renal
HL-60(TB) leukemia = system: HL-60(TB) leukemia
NCI-H23 lung = system: NCI-H23 lung
MDA-MB-231 breast = system: MDA-MB-231 breast
K-562 leukemia = system: K-562 leukemia
MDA-MB-435 = system: MDA-MB-435
NCI/ADR-RES ovarian = system: NCI/ADR-RES ovarian
M14 melanoma = system: M14 melanoma
LOX IMVI melanoma = system: LOX IMVI melanoma
CAKI-1 renal = system: CAKI-1 renal
ACHN renal = system: ACHN renal
SNB-75 CNS = system: SNB-75 CNS
MALME-3M melanoma = system: MALME-3M melanoma
UACC-257 melanoma = system: UACC-257 melanoma
NCI-H322M lung = system: NCI-H322M lung
KM12 colon = system: KM12 colon
HOP-92 NSCLC = system: HOP-92 NSCLC
SF-268 CNS = system: SF-268 CNS
UO-31 renal = system: UO-31 renal
OVCAR-8 ovarian = system: OVCAR-8 ovarian
SK-MEL-5 melanoma = system: SK-MEL-5 melanoma
HCT-15 colon = system: HCT-15 colon
TK-10 renal = system: TK-10 renal
SR leukemia = system: SR leukemia
OVCAR-4 ovarian = system: OVCAR-4 ovarian
DU-145 prostate = system: DU-145 prostate
COLO 205 colon = system: COLO 205 colon
IGROV1 ovarian = system: IGROV1 ovarian
SF-295 CNS = system: SF-295 CNS
HOP-62 NSCLC = system: HOP-62 NSCLC
HT29 colon = system: HT29 colon
OVCAR-5 ovarian = system: OVCAR-5 ovarian
HCT-116 colon = system: HCT-116 colon
HCC-2998 colon = system: HCC-2998 colon
SW-620 colon = system: SW-620 colon
NCI-H460 lung = system: NCI-H460 lung
U251 CNS = system: U251 CNS
T-47D breast = system: T-47D breast
MCF7 breast = system: MCF7 breast
RPMI-8226 leukemia = system: RPMI-8226 leukemia
A498 renal = system: A498 renal
HS 578T breast = system: HS 578T breast
RXF 393 renal = system: RXF 393 renal
SK-MEL-2 melanoma = system: SK-MEL-2 melanoma
UACC-62 melanoma = system: UACC-62 melanoma
EKVX NSCLC = system: EKVX NSCLC
786-0 renal = system: 786-0 renal
SK-MEL-28 melanoma = system: SK-MEL-28 melanoma
MOLT-4 leukemia = system: MOLT-4 leukemia
A549 NSCLC = system: A549 NSCLC
CCRF-CEM leukemia = system: CCRF-CEM leukemia
NCI-H522 lung = system: NCI-H522 lung

O=[N+]([O-])c1cc([N+](=O)[O-])c(Nc2ccc(Cl)cc2)c([N+](=O)[O-])c1
GI50 (OVCAR-3 ovarian): 1.97 µM
TGI (OVCAR-3 ovarian): 5.4 µM
GI50 (PC-3 prostate): 2.34 µM
TGI (PC-3 prostate): 14.4 µM
GI50 (SNB-19 CNS): 4.75 µM
TGI (SNB-19 CNS): 33.3 µM
GI50 (SF-539 CNS): 3.27 µM
TGI (SF-539 CNS): 15.9 µM
GI50 (NCI-H226 lung): 2.98 µM
TGI (NCI-H226 lung): 14.5 µM
GI50 (SN12C renal): 3.64 µM
TGI (SN12C renal): 19.6 µM
GI50 (HL-60(TB) leukemia): 1.83 µM
TGI (HL-60(TB) leukemia): 5.11 µM
GI50 (NCI-H23 lung): 2.08 µM
TGI (NCI-H23 lung): 7.87 µM
GI50 (MDA-MB-231 breast): 2.61 µM
TGI (MDA-MB-231 breast): 8.66 µM
GI50 (K-562 leukemia): 2.34 µM
TGI (K-562 leukemia): 10.7 µM
GI50 (MDA-MB-435): 4.96 µM
TGI (MDA-MB-435): 19 µM
GI50 (NCI/ADR-RES ovarian): 2.25 µM
TGI (NCI/ADR-RES ovarian): > 100 µM
GI50 (M14 melanoma): 3.4 µM
TGI (M14 melanoma): 14 µM
GI50 (LOX IMVI melanoma): 2.41 µM
TGI (LOX IMVI melanoma): 11.3 µM
GI50 (CAKI-1 renal): 3.33 µM
TGI (CAKI-1 renal): > 100 µM
GI50 (ACHN renal): 1.62 µM
TGI (ACHN renal): 3.58 µM
GI50 (SNB-75 CNS): 5.85 µM
TGI (SNB-75 CNS): 30.7 µM
GI50 (MALME-3M melanoma): 2.67 µM
TGI (MALME-3M melanoma): 12.1 µM
GI50 (UACC-257 melanoma): 3.88 µM
TGI (UACC-257 melanoma): 15.7 µM
GI50 (NCI-H322M lung): 4.6 µM
TGI (NCI-H322M lung): > 100 µM
GI50 (KM12 colon): 2.56 µM
TGI (KM12 colon): 7.41 µM
GI50 (HOP-92 NSCLC): 1.13 µM
TGI (HOP-92 NSCLC): 6.32 µM
GI50 (SF-268 CNS): 4.01 µM
TGI (SF-268 CNS): 42.1 µM
GI50 (UO-31 renal): 2.02 µM
TGI (UO-31 renal): 11.4 µM
GI50 (OVCAR-8 ovarian): 1.83 µM
TGI (OVCAR-8 ovarian): 16.3 µM
GI50 (SK-MEL-5 melanoma): 8.06 µM
TGI (SK-MEL-5 melanoma): 20.7 µM
GI50 (HCT-15 colon): 2.24 µM
TGI (HCT-15 colon): 12 µM
GI50 (TK-10 renal): 5.2 µM
TGI (TK-10 renal): 35.4 µM
GI50 (SR leukemia): 2.4 µM
TGI (SR leukemia): 9.86 µM
GI50 (OVCAR-4 ovarian): 2.67 µM
TGI (OVCAR-4 ovarian): 12.6 µM
GI50 (DU-145 prostate): 4.57 µM
TGI (DU-145 prostate): 18.2 µM
GI50 (COLO 205 colon): 1.75 µM
TGI (COLO 205 colon): 3.98 µM
GI50 (IGROV1 ovarian): 4.58 µM
TGI (IGROV1 ovarian): > 100 µM
GI50 (SF-295 CNS): 2.23 µM
TGI (SF-295 CNS): 8.18 µM
GI50 (HOP-62 NSCLC): 3.84 µM
TGI (HOP-62 NSCLC): 26.5 µM
GI50 (HT29 colon): 2.66 µM
TGI (HT29 colon): 8.55 µM
GI50 (OVCAR-5 ovarian): 2.84 µM
TGI (OVCAR-5 ovarian): 10.7 µM
GI50 (HCT-116 colon): 1.58 µM
TGI (HCT-116 colon): 3.12 µM
GI50 (HCC-2998 colon): 3.44 µM
TGI (HCC-2998 colon): 14.1 µM
GI50 (SW-620 colon): 2.78 µM
TGI (SW-620 colon): 10.8 µM
GI50 (NCI-H460 lung): 2.65 µM
TGI (NCI-H460 lung): 10.4 µM
GI50 (U251 CNS): 1.22 µM
TGI (U251 CNS): 8.55 µM
GI50 (T-47D breast): 0.831 µM
TGI (T-47D breast): 55 µM
GI50 (MCF7 breast): 2.51 µM
TGI (MCF7 breast): 11.1 µM
GI50 (RPMI-8226 leukemia): 1.75 µM
TGI (RPMI-8226 leukemia): 7.41 µM
GI50 (A498 renal): 2.94 µM
TGI (A498 renal): 18.3 µM
GI50 (HS 578T breast): 2.25 µM
TGI (HS 578T breast): 13.3 µM
GI50 (RXF 393 renal): 1.98 µM
TGI (RXF 393 renal): 4.77 µM
GI50 (SK-MEL-2 melanoma): 13.6 µM
TGI (SK-MEL-2 melanoma): 33.4 µM
GI50 (UACC-62 melanoma): 3.21 µM
TGI (UACC-62 melanoma): 16 µM
GI50 (EKVX NSCLC): 3.04 µM
TGI (EKVX NSCLC): 14.9 µM
GI50 (786-0 renal): 6.69 µM
TGI (786-0 renal): 19.5 µM
GI50 (SK-MEL-28 melanoma): 12.1 µM
TGI (SK-MEL-28 melanoma): 37.1 µM
GI50 (MOLT-4 leukemia): 3.07 µM
TGI (MOLT-4 leukemia): 8.22 µM
GI50 (A549 NSCLC): 3.83 µM
TGI (A549 NSCLC): 15.5 µM
GI50 (CCRF-CEM leukemia): 2.94 µM
TGI (CCRF-CEM leukemia): > 100 µM
GI50 (NCI-H522 lung): 1.65 µM
TGI (NCI-H522 lung): 3.91 µM
